# Results from patent US11338026B2, “Identification of immunologically protective neo-epitopes for the treatment of cancers” (THE UNIVERSITY OF CONNECTICUT, priority 2014, dated 2022).
# Target: T1, H-2 K^d (Mus musculus, UniProt P01902)
# T1 sequence (P01902 22-368): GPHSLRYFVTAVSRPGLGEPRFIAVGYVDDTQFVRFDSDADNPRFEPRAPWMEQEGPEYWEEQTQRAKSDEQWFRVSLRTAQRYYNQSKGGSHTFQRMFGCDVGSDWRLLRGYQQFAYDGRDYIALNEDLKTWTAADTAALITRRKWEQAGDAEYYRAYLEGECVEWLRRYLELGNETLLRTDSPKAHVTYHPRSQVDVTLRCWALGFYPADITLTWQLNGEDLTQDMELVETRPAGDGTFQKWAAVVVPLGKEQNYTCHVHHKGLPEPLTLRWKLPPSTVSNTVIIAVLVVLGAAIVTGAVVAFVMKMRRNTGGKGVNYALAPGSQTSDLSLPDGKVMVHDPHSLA
# T1 sequence (P01887 21-119 partner): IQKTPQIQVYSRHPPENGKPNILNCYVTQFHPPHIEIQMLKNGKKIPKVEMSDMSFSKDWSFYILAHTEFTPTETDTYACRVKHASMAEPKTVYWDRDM
# Assay: Binding assays: inhibition of binding of a radiolabeled standard peptide to purified MHC molecules
# Protocol: Binding assays. Binding of peptides to H-2 K^d was determined using quantitative assays based on the inhibition of binding of a radiolabeled standard peptide to purified MHC molecules essentially as described previously. […] Under the conditions utilized, where [label]<[MHC] and IC50≥[MHC], the measured IC50 values are reasonable approximations of the dissociation constant values.
structure (smiles),measurement,value
CC[C@H](C)[C@H](NC(=O)[C@H](Cc1ccc(O)cc1)NC(=O)[C@@H](N)CCC(N)=O)C(=O)N[C@@H](Cc1c[nH]cn1)C(=O)N[C@@H](CO)C(=O)N[C@@H](C)C(=O)N[C@@H](CC(N)=O)C(=O)N[C@H](C(=O)N[C@@H](CC(C)C)C(=O)O)C(C)C [Mapk1.1],IC50,0.2 nM
